Source: PubChem BioAssay AID743258 (The Scripps Research Institute Molecular Screening Center, 2014)
Only a part is listed here, and it is no random draw. The source made the active and inactive calls. Cut-off read from the data, not from the text of the source: active = inhibition above about 9.5%; inactive = the rest.

Protein sequences, listed by entry. Tags and fused reporters are not part of them.
UniProt P19174, whole entry: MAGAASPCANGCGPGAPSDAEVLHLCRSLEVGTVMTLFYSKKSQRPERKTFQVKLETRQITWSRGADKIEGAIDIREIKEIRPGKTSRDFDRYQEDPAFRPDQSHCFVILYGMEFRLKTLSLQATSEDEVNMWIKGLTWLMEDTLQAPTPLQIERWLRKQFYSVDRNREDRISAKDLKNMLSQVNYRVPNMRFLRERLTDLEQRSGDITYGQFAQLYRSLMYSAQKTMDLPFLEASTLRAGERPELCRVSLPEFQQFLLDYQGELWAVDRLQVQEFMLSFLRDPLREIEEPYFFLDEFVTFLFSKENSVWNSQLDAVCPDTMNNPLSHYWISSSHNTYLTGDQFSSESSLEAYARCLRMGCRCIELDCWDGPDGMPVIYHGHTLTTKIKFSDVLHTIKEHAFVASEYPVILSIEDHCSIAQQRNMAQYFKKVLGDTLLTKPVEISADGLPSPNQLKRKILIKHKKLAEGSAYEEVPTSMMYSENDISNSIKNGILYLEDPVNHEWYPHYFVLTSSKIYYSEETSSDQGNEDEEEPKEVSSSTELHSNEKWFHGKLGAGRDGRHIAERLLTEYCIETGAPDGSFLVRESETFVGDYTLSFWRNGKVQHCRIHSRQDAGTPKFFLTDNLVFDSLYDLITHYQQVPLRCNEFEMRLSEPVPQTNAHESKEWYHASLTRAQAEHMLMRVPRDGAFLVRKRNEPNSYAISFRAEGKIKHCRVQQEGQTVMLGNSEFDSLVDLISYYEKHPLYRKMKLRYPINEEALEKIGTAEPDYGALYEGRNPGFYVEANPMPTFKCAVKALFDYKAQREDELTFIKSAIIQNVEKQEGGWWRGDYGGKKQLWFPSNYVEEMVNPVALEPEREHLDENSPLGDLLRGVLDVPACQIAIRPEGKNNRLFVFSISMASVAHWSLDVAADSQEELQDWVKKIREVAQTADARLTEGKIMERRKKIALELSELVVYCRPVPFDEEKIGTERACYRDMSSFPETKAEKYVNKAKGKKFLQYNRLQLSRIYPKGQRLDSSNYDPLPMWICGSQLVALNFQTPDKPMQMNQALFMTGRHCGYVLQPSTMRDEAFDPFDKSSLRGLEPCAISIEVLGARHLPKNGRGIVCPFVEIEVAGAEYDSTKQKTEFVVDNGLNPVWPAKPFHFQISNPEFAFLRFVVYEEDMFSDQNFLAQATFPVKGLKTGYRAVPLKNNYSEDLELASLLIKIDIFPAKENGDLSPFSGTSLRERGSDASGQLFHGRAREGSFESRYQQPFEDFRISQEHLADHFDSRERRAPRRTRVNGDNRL

target: 1-phosphatidylinositol 4,5-bisphosphate phosphodiesterase gamma-1 (Homo sapiens) (UniProt P19174); experiment: PLC-gamma1 enzyme inhibitors, counter-screen for PLC-beta3 inhibitor project, biochemical, fluorescence (AID 743258); conditions: purified PLC-gamma1, fluorogenic substrate, at 12.3 µM, hits give high values

Row | Compound | inhibition
1 | CCC(c1nnnn1C1CCCCC1)N1CCC(n2c(=O)[nH]c3ccccc32)CC1 (stereo unspecified) | active: 10.3%
